According to ChEMBL document CHEMBL4321821, “Opioids as Substrates and Inhibitors of the Genetically Highly Variable Organic Cation Transporter OCT1” (J Med Chem, 2019):

How the values were obtained:
Assay type in all cases: ADME, organism-based
Settings in all cases: in vivo
[1] = Ratio of unbound Cmax in human at 50 mg, po dosed as slow release formulation to inhibition of human OCT1 expressed in HEK293 cells assessed as reduction in ASP+ substrate uptake by microplate reader based analysis
[2] = Ratio of unbound maximal portal vein concentration in human at 50 mg, po dosed as slow release formulation to inhibition of human OCT1 expressed in HEK293 cells assessed as reduction in ASP+ substrate uptake by microplate reader based analysis
[3] = Ratio of unbound Cmax in human at 10 mg, iv to inhibition of human OCT1 expressed in HEK293 cells assessed as reduction in ASP+ substrate uptake by microplate reader based analysis
[4] = Ratio of unbound maximal portal vein concentration in human at 10 mg, iv to inhibition of human OCT1 expressed in HEK293 cells assessed as reduction in ASP+ substrate uptake by microplate reader based analysis
[5] = Ratio of unbound Cmax in human at 10 mg, im to inhibition of human OCT1 expressed in HEK293 cells assessed as reduction in ASP+ substrate uptake by microplate reader based analysis
[6] = Ratio of unbound maximal portal vein concentration in human at 10 mg, im to inhibition of human OCT1 expressed in HEK293 cells assessed as reduction in ASP+ substrate uptake by microplate reader based analysis
[7] = Ratio of unbound Cmax in human at 10 mg, po dosed as immediate release formulation to inhibition of human OCT1 expressed in HEK293 cells assessed as reduction in ASP+ substrate uptake by microplate reader based analysis
[8] = Ratio of unbound maximal portal vein concentration in human at 10 mg, po dosed as immediate release formulation to inhibition of human OCT1 expressed in HEK293 cells assessed as reduction in ASP+ substrate uptake by microplate reader based analysis

## CN1CC[C@]23c4c5ccc(O)c4O[C@H]2[C@@H](O)C=C[C@H]3[C@H]1C5 [MORPHINE]
[1]
  Ratio: 0.0002
[2]
  Ratio: 0.094
[3]
  Ratio: 0.01
[4]
  Ratio: 0.028
[5]
  Ratio: 0.002
[6]
  Ratio: 0.021
[7]
  Ratio: 0.0003
[8]
  Ratio: 0.019
